{"source": "patent US20110301098A1", "about": "“TREATMENT FOR INTIMAL HYPERPLASIA AND RELATED CONDITIONS” (priority 2006, published 2011)", "origin": "cited, not measured here", "target": "T1, C5 (Homo sapiens, UniProt P01031)", "T1 construct": "host or cells: patients (circulating endogenous C5)", "conditions": "cited from earlier work", "key": {"[1]": {"conditions": "acute myocardial infarction, PCA group"}}, "note": "Read-outs that look alike come from different tables or passages of the source.", "data": [{"substance": "pexeluzimab: humanised monoclonal single-chain antibody fragment directed against C5 (Alexion Pharmaceuticals, Inc.)", "values": [{"measurement": "infarct size", "setting": "[1]", "value": "no reduction in infarct size"}, {"measurement": "mortality", "setting": "[1]", "value": "reduction in mortality"}, {"measurement": "benefit as adjunctive therapy", "setting": "acute myocardial infarction, in conjunction with thrombolytics", "value": "No benefit"}, {"measurement": "risk of death or myocardial infarction", "setting": "patients undergoing bypass grafts only", "value": "did not reduce the risk"}, {"measurement": "risk of death or myocardial infarction", "setting": "patients undergoing grafts with or without valve surgery", "value": "did reduce some risk"}]}]}
